From patent US8426138B2 (priority 2006, dated 2013)
Read-outs that look alike come from different tables or passages of the source.

Chains of the proteins cited; added tags and fusions are not shown.
UniProt P29754, whole entry: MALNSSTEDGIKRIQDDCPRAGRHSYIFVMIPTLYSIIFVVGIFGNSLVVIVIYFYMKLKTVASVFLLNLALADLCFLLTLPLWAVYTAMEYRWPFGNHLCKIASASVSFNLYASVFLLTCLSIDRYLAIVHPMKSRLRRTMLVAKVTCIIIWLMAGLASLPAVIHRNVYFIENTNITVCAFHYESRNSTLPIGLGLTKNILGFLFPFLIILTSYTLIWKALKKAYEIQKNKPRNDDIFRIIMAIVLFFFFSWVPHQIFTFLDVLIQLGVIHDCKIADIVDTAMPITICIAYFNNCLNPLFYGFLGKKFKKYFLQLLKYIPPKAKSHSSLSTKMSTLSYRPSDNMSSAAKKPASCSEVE

Target: Angiotensin II receptor 1a (AT1a) (Mus musculus, UniProt P29754)
Conditions: 2 hr
From the text: Plasmids. […] Other FYVE domains were generated similarly by RT-PCR^˜. […] To generate a β2AR-eYFP-α construct, the eYFP-α fragment was subcloned into the β2AR-ωplasmid using Xhol and HindIII. The Angiotensin receptor 1a was derived by RT-PCR from C57/BI6 mouse brain RNA using primers for the entire coding sequence, minus the stop codon; it was cloned N-terminally to eYFP-α or ω with MfeI and XhoI. […] Finally, to generate fusion proteins with β-arrestin, the full coding sequence of human β-arrestin B2 was PCR amplified from a cDNA clone and inserted into the Mfel-XhoI sites of the ω and eYFP-α vectors.
Assays and cell preparation. […] LysoTracker Red and Texas Red-labeled transferrin were purchased from Molecular Probes. The Kinase/Phosphatase Inhibitor Library was purchased from BIOMOL, and the Mechanistic and Diversity Compound Libraries were provided by the Developmental Therapeutics Program of the National Cancer Institute. Cells were plated and grown to confluency in 96-well white tissue culture dishes (Corning Costar), in 100 μl of growth media. Dose-response curves were generated by adding the respective ligand to the media and incubating for 2 h at 37° C. […]

Question: For angiotensin II, which EC50 (read-out: EC50, arrestin-binding activation assay) is on record?
Answer: 2.4 nM

Question: What about the EC50 (read-out: EC50, internalization assay) of the same substance?
Answer: 3.3 nM
